Key:
[1] = test system: NCI-H838 MTAP(-/-) deleted cells; assay: Cell-Titer Glo proliferation inhibition, single agents and combinations, 144 h; conditions: for IC20 / IC50 / Maximum Inhibition Rate (%): single agent
Procedure: The NCI-H838 MTAP(-/-) deleted cells were purchased from Kyinno Biotechnology (China); the cell culture medium, fetal bovine serum and penicillin-streptomycin were purchased from Thermo Fisher Scientific (USA); the Cell-Titer Glo kit was purchased from Promega Corporation (USA). The cells were cultured in a cell culture medium containing 90% RPMI1640 and 10% fetal bovine serum at 37°C and 5% CO2. Only cells in the logarithmic growth phase were used in the experiments.
(§1) The cell density was adjusted using complete medium and cells were then seeded into a 96-well cell culture plate. The cells in the 96-well plate were incubated at 37°C and 5% CO2. Two test compounds were added to the cell plate by serial dilution. After addition, the cells in the 96-well plate were incubated at 37°C and 5% CO2 for 144 hours. The CTG reagent was thawed and the cell plate was equilibrated to room temperature for 30 minutes. An equal volume of CTG solution was added to each well. The plate was shaken on an orbital shaker for 5 minutes to lyse the cells. The cell plate was placed at room temperature for 20 minutes to stabilize the luminescence signal. The luminescence values were read and data were collected.
(§2) Calcusyn was used to analyze the combination index (CI) values.

[2] = test system: HCT116 MTAP (-/-) deleted cells; assay: as above; conditions: single agent
Procedure: The HCT116 MTAP (-/-) deleted cells were provided by Kyinno Biotechnology Inc. The cells were cultured in a cell culture medium containing 90% RPMI1640 and 10% fetal bovine serum at 37°C and 5% CO2. Only cells in the logarithmic growth phase were used in the experiments.
as §1, with “384-well” for “96-well”
as §2

Row | SMILES | IC20 [1] | IC50 [1] | Maximum Inhibition Rate (%) [1] | IC20 [2] | Maximum Inhibition Rate (%) [2] | IC50 [2] | other results
1 | C[C@H](c1ccc(C(F)(F)F)cn1)N(C(=O)c1cc2c(cc1F)nc(N)c1cncn12)C1CC1 | 25 nM | 90.9 nM | 63.6% |  |  |  | Inhibition Rate (%) ([1]; Compound C 12 nM + IDE397 0 nM): -4.0%; Inhibition Rate (%) ([1]; Compound C 37 nM + IDE397 0 nM): 10.2%; Inhibition Rate (%) ([1]; Compound C 111 nM + IDE397 0 nM): 38.3%; Inhibition Rate (%) ([1]; Compound C 333 nM + IDE397 0 nM): 64.0%; Inhibition Rate (%) ([1]; Compound C 1000 nM + IDE397 0 nM): 70.0%; Inhibition Rate (%) ([1]; Compound C 3000 nM + IDE397 0 nM): 71.4%
2 | CN(C(=O)c1ccc2nc(N)c3cncn3c2c1)[C@@H]1COc2cc(C(F)(F)F)ccc21 | 29.5 nM | 102 nM | 64.8% | 2.6 nM | 84.5% |  | 
3 | Nc1nc(=O)n(-c2ccccc2Cl)c2nc(C(F)(F)F)ccc12 | 4.58 nM | 21.8 nM | 57.0% | 4.2 nM | 75.0% | 13.4 nM | Inhibition Rate (%) ([1]; Compound C 0 nM + IDE397 3 nM): 9.3%; Inhibition Rate (%) ([1]; Compound C 0 nM + IDE397 12 nM): 15.8%; Inhibition Rate (%) ([1]; Compound C 0 nM + IDE397 47 nM): 24.5%; Inhibition Rate (%) ([1]; Compound C 0 nM + IDE397 188 nM): 32.0%; Inhibition Rate (%) ([1]; Compound C 0 nM + IDE397 750 nM): 42.6%; Inhibition Rate (%) ([1]; Compound C 0 nM + IDE397 3000 nM): 44.9%
4 | COc1ccc(-c2c(Nc3ccccn3)[nH]c3c(C4=CCCCC4)c(-c4ccccc4)nn3c2=O)cc1 |  |  |  | 11.9 nM | 92.4% | 40 nM | 
5 | Nc1nc2cc(F)c(C(=O)N(Cc3ccc(C(F)(F)F)cn3)C3CC3)cc2n2cncc12 | 50.9 nM | 187 nM | 68.3% |  |  |  | 
6 | CN(C(=O)c1cc2c(cc1F)nc(N)c1cncn12)[C@@H]1COc2cc(C(F)(F)F)ccc21 | 22.2 nM | 79.8 nM | 62.7% |  |  |  | 

Source: patent EP4830724A1, “PHARMACEUTICAL COMPOSITION CONTAINING PRMT5 INHIBITOR AND MAT2A INHIBITOR” (dated 2026)
